One molecule from publication PMC6201908, “Affinity, potency, efficacy, and selectivity of neurokinin A analogs at human recombinant NK2 and NK1 receptors” (PLoS ONE, 2018) can be followed below.

Protein sequences, listed by entry. Tags and fused reporters are not part of them.
UniProt P21452, whole entry: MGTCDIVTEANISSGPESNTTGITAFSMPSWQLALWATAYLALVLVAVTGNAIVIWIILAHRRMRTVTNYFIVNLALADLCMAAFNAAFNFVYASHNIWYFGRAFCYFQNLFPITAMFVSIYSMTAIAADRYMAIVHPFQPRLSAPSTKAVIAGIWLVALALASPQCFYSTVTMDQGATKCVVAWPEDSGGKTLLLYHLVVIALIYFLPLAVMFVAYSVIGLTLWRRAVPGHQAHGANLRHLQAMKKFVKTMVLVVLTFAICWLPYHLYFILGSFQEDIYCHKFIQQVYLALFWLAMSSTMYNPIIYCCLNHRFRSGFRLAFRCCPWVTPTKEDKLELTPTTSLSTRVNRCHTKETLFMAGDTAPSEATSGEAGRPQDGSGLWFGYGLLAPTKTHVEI

Each structure is given as a SMILES string. pEC50: −log10 of the molar value.

Experiment [1] has as its target T1, human recombinant NK2 receptors (Homo sapiens, UniProt P21452). Kind of experiment: cell-based. As to conditions: CHO-hNK2 cells; read-out: NK2 EC50 cAMP stimulation. How it is done: CHO-hNK2 and CHO-hNK1 cells were transiently transfected with a CRE-LUC reporter construct using Lipofectamine 2000. At 24 h post-transfection, cells were plated at a density of 20,000 cells/well in a 96-well culture plate. […] Luciferase expression was measured after 5 h of incubation at 37°C (in the presence of 5% CO2) by adding Firefly Luciferase reagent, followed by Renilla Luciferase reagent. Luminescence was measured by using an Envision Multilabel flash lamp reader after addition of the first and second reagents. Data were normalized by calculating the ratio of the Firefly luminescence from the CRE reporter to the Renilla luminescence from the control Renilla Luciferase vector.

The target of experiment [2] is T1, human recombinant NK2 receptors. How it is done:
Human recombinant NK2 and NK1 receptors were generated using stably transfected CHO cells (CHO-hNK2 and CHO-hNK1, respectively). Human NK2 or NK1 receptor expressing vectors from Genecopeia (Rockville, USA) were transfected in CHO cells using the standard FuGENE protocol and cells were selected using 450 μg/mL geneticin (G418). Clones expressing the receptors were selected by functional coupling to calcium using FLIPR and a single clone for each receptor subtype was selected for expansion and stable cell line generation. Cells were cultured in a humidified incubator with 5% CO2 in F12K medium containing 10% heat inactivated FBS and 450 μg/mL geneticin and passaged on reaching 80–90% confluence.
The agonist efficacy of the test compounds at recombinant human NK1 or NK2 receptors expressed in CHO cells was assessed by measuring the intracellular calcium response using the calcium-sensitive dye Fluo-4 AM (Eugene, OR, USA) and a Fluorometric Imaging Plate Reader (FLIPR, Molecular Devices, CA, USA). CHO-hNK1 and CHO-hNK2 cells were seeded into black walled clear-bottom 384-well plates at a density of 10,000 and 15,000 cells per well in 50 μL culture media, respectively, and grown overnight at 37°C in a humidified CO2-incubator. […] Loaded cell plates were transferred to the FLIPR and calcium responses were monitored as described below. […]

In the case of `CSCC[C@H](NC(=O)[C@H](CC(C)C)NC(=O)CNC(=O)[C@H](Cc1ccccc1)NC(=O)[C@H](Cc1ccccc1)NC(=O)[C@H](CCC(N)=O)NC(=O)[C@H](CCC(N)=O)NC(=O)[C@@H]1CCCN1C(=O)[C@H](CCCCN)NC(=O)[C@@H]1CCCN1C(=O)[C@@H](N)CCCN=C(N)N)C(N)=O` [Substance P, reference compound], the pEC50 (usually the negative decadic logarithm of the EC50, by convention in mol/L) in experiment [1] was 8.43. The “Agonist efficacy, intracellular calcium response (in words)” value in experiment [2] is “full agonists”.
